Reference: PubChem BioAssay AID720533 (National Center for Advancing Translational Sciences (NCATS), 2013)
The list shows a part of the results, in another mix than the full data. Inconclusive results are not listed. Where a call stands in place of a potency, no number is given. Calls of active or inactive are those of the source. Calls follow the shape of the full dose curve; tested in HEK293 cells.

Assay: qHTS for Inhibitors of binding or entry into cells for Lassa Virus
Conditions: Lassa virus pseudotyped entry inhibition, cell-based qHTS; series mostly up to 49.2 µM
Potency is read from the fitted curve at half-maximal effect.

Compound | Potency
CCC(=O)N(c1ccccc1)C1(COC)CCN(CCn2nnn(CC)c2=O)CC1 | inactive
CN(CCCl)CCCl | active: 3.16 µM
